Key:
cdk5/p25 = cdk5/p25 (Homo sapiens, UniProt Q00535); assay: cdk5/p25 kinase inhibition; format: biochemical; conditions: Table 1, additional kinases

Chains of the proteins cited; added tags and fusions are not shown.
UniProt Q00535, whole entry, species assumed: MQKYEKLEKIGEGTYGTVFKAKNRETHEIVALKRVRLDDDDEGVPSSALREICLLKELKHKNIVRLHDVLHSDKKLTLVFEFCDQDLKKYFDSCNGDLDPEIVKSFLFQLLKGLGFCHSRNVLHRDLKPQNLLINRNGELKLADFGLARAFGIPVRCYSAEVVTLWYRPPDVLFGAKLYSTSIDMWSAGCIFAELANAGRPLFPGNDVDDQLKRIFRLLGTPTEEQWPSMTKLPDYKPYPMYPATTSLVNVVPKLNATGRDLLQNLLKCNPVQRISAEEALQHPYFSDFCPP

| Compound | LC50 (lethal concentration) selectivity (colon cancer cell lines) | IC50 (cdk5/p25) |
| --- | --- | --- |
| 2-(1R-isopropyl-2-hydroxyethyl)-6-(3-chloroanilino)-9-isopropylpurine [Purvalanol A] | selectively inhibited colon cancer cell lines at micromolar concentrations | – |
| COc1ccc(CNc2nc(NC(CO)C(C)C)nc3c2ncn3C(C)C)cc1 (centres unmarked) [NG-35] | – | 15 nM |
